# Binding of CDR-mutated scFvs to a peptide of the spike HR2 region

Binding partner: SARS-CoV-2 spike HR2 peptide, sequence PDVDLGDISGINAS.

Each scFv is VH, a (GGGGS)3 linker, VL, as in the parent Ab-14, and differs from it in the CDRs of the light chain only.
VH: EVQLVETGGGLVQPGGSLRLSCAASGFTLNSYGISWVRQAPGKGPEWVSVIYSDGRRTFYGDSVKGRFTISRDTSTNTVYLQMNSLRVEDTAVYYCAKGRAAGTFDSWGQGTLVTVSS
VL: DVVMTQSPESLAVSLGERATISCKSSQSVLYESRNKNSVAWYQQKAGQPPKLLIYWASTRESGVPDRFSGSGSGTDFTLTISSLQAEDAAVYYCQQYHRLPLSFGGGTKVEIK

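AAYL50 was designed without a model: most single CDR substitutions and a random sample of double and triple ones. The assay is AlphaSeq: two haploid yeast populations carry antibody and antigen on their surface. Binding brings cells together so that they mate, and sequencing counts the barcode pairs among the diploids. The ratio of observed to expected reads was calibrated, replicate by replicate, on BCL2-family standards whose Kd was known from biolayer interferometry. The assay was run in three technical replicates.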

Positions count from residue 1 of the parent VL; K36D puts D in place of K. Scale: log10 of Kd in nM, estimated from mating counts; low values are strong binders. Averages over replicates are reported, and they cover detected replicates only. Where no diploid with the target was found in that replicate, the entry reads "n.d.": below detection, most likely a poor binder, though not proof of it. For reference, the parent read 0.65 as the reference entry and 1.68 as a member of this library. Background: pairings of library AAYL50 with three empty control strains gave a value in 18% of cases (median 4.19, 5th percentile 2.99). Values in that range, when seen in few replicates, are hard to tell from nonspecific mating. The control count says in how many pairings with the empty strains this scFv gave a signal, with their mean in brackets.

| changes | log10 Kd (nM) by replicate | mean log10 Kd (nM) | signal with controls |
|---|---|---|---|
| K36D/S58F | n.d. 3.35 4.46 | 3.91 | 2/9 (3.82) |
| R34C/E61F/Q96A | 3.17 2.99 2.89 | 3.01 | 4/9 (4.45) |
| K36F/N37Q | 1.07 1.34 1.07 | 1.16 | 0/9 |
| Y31P/E61I/S62K | 1.57 1.77 1.76 | 1.70 | 2/9 (4.68) |
| R34K/A57C/R99I | 3.19 2.23 2.08 | 2.50 | 0/9 |
| S58K/R60E/S103H | 5.27 5.06 n.d. | 5.17 | 6/9 (4.36) |
| N35R/L100V | n.d. n.d. n.d. | n.d. | 1/9 (4.58) |
| S58E/R99D | 1.81 2.20 2.04 | 2.02 | 1/9 (3.75) |
| Y31Q/R60T/L102H | n.d. n.d. n.d. | n.d. | 0/9 |
| L30E/N35R | 1.11 1.30 1.37 | 1.26 | 8/9 (4.43) |
| S33A/R34H/T59E | n.d. n.d. n.d. | n.d. | 0/9 |
| E32C/S38A | n.d. n.d. n.d. | n.d. | 0/9 |
| K24H/A57K/E61A | 1.03 1.24 1.16 | 1.14 | 0/9 |
| K24C/R60Q/L102E | n.d. n.d. 4.62 | 4.62 | 3/9 (4.66) |
| Q27L/S58L/R60Y | n.d. n.d. 3.69 | 3.69 | 0/9 |
| S28D/S58V/E61I | 2.66 2.31 2.70 | 2.56 | 1/9 (3.53) |
| Q27C/R60Y/Q96G | 3.91 n.d. n.d. | 3.91 | 1/9 (4.71) |
| S33Y/E61N/S62Y | 3.16 2.92 3.58 | 3.22 | 0/9 |
| S26L/V29T/E32A | 1.60 1.58 1.32 | 1.50 | 0/9 |
| R99S | 1.49 1.47 1.54 | 1.50 | 6/9 (4.74) |
| W56M/Q95C/L100I | 0.45 0.65 0.53 | 0.55 | 4/9 (5.20) |
| S25F/S26H/W56G | -0.57 -0.12 -0.45 | -0.38 | 2/9 (4.58) |
| Y31W/A40H/S58V | n.d. n.d. n.d. | n.d. | 1/9 (4.19) |
| S28Q/E61D/L100K | n.d. n.d. n.d. | n.d. | 0/9 |
| Y31G/A57L/E61N | n.d. n.d. 5.10 | 5.10 | 2/9 (3.83) |
| A57E | 1.27 1.39 1.40 | 1.36 | 3/9 (4.69) |
| H98W/P101N | n.d. 3.49 n.d. | 3.49 | 0/9 |
| T59E/R60G/R99A | n.d. 2.97 n.d. | 2.97 | 0/9 |
| E32M/R60H/L100N | n.d. n.d. n.d. | n.d. | 2/9 (3.36) |
| Y31I/R60Q/L100R | n.d. n.d. n.d. | n.d. | 0/9 |
| E32C/S62W/H98W | 1.95 1.56 2.17 | 1.89 | 2/9 (4.00) |
| S38Y/R60E/Q96N | n.d. n.d. n.d. | n.d. | 0/9 |
| K36Y/Q96W/Y97K | n.d. n.d. n.d. | n.d. | 1/9 (4.18) |
| S25D/L30K/K36D | 0.82 1.07 0.95 | 0.95 | 0/9 |
| S28Y/L30C/E61R | n.d. n.d. n.d. | n.d. | 0/9 |
| S38I/W56K/T59K | n.d. n.d. n.d. | n.d. | 0/9 |
| S38H/E61A/L102D | n.d. n.d. 4.56 | 4.56 | 0/9 |
| A40F/P101G/S103K | n.d. 5.25 n.d. | 5.25 | 0/9 |
| K36F/N37I/A57W | n.d. 2.87 n.d. | 2.87 | 1/9 (3.51) |
| S33W/R99C/S103H | 1.80 2.23 2.24 | 2.09 | 2/9 (3.45) |
| K24T/S25Y/L30Q | 0.39 0.72 0.60 | 0.57 | 1/9 (4.29) |
| S58A/R60A | n.d. n.d. n.d. | n.d. | 2/9 (3.69) |
| S26A/A40Q/E61V | n.d. 3.21 n.d. | 3.21 | 2/9 (3.29) |
| S33R/N37V/H98N | 0.48 1.10 0.29 | 0.62 | 2/9 (3.54) |

Excerpt, the first 3 entries:

changes,log10 Kd (nM) by replicate,mean log10 Kd (nM),signal with controls
K36D/S58F,n.d. 3.35 4.46,3.91,2/9 (3.82)
R34C/E61F/Q96A,3.17 2.99 2.89,3.01,4/9 (4.45)
K36F/N37Q,1.07 1.34 1.07,1.16,0/9

Source: Engelhart et al. 2022 (doi:10.1038/s41597-022-01779-4), MIT Lincoln Laboratory and A-Alpha Bio; data file from the FLAb repository.